This series concerns Salmonella typhimurium TA98, TA100, TA1535, TA1537 and Escherichia coli WP2 uvrA. Nature of the series: Bacterial reverse mutation assay (Ames test). In general terms: In the Ames test, an excess of revertant colonies over the control signals mutagenicity.

In the case of `COCCC1CC2CN3CCc4c([nH]c5ccccc45)C(C(=O)OC)(C2)C13.Cl` (centres unmarked) [18-MC HCl, 18-Methoxycoronaridine hydrochloride], where the note is “GLP, up to 500 μg/plate, with and without metabolic activation”, the mutagenic activity entry is “negative”. For the same compound, the mutagenic response result (non-GLP, up to 5000 μg/plate, absence or presence of S9) was “did not cause mutagenic response”.

These data come from US20230201217A1 (priority 2019, published 2023).
